Patent US20050171139A1, “Treating psychotic symptoms” (priority 2003, published 2005)
Read-outs that look alike come from different tables or passages of the source.

Tests used:
Male Sprague-Dawley rats [1] = conditions: rat, in vivo
[2] = test system: G proteins coupled to the D2-like receptor; conditions: rat, in vivo
Male Sprague-Dawley rats [3] = conditions: rat, in vivo; remark: listed apart in the source
Male Sprague-Dawley rats [4] = conditions: rat, in vivo; remark: listed apart in the source
Gsα = conditions: rat, in vivo
[5] = test system: cAMP response element-binding protein (CREB); conditions: in vivo
[6] = test system: cAMP-dependent protein kinase A (PKA); conditions: in vivo
Male Sprague-Dawley rats [7] = conditions: rat, in vivo; remark: listed apart in the source

## CCCN1CCC[C@@H]2Cc3n[nH]cc3C[C@H]21 [quinpirole]
Male Sprague-Dawley rats [1]
  effect on mean startle responses to pulse trials: Neither acute nor 28 days of repeated quinpirole treatment affected mean startle responses
[2]
  effect on dopamine-stimulated [35S]GTPγS binding: has no effect
Male Sprague-Dawley rats [3]
  effect of acute treatment on PPI: significantly reduced PPI
Male Sprague-Dawley rats [3]; 0.1 mg/kg
  change of PPI upon repeated treatment: increased slightly
Male Sprague-Dawley rats [3]; 0.3 mg/kg
  effect of repeated treatment on PPI disruption: did not affect PPI disruption
Male Sprague-Dawley rats [4]
  effect on PPI on day 1: significant PPI disruption
Gsα
  effect on NAc Gsα protein levels: nor were treatment effects detected
[5]
  phosphorylation of CREB in the nucleus accumbens: increased phosphorylation
[6]
  PKA activity in the nucleus accumbens (NAc): effectively stimulated
Male Sprague-Dawley rats [7]
  effect on mean startle response: significantly reduced
  effect on mean startle responses to pulse trials: Neither acute nor repeated quinpirole treatment altered mean startle responses
